Measured values as given in ChEMBL document CHEMBL1141241, “3,6-disubstituted coumarins as mechanism-based inhibitors of thrombin and factor Xa” (J Med Chem, 2005).
pIC50: −log10 of the molar value.

Target: Prothrombin (Homo sapiens, UniProt P00734)
Experiment: Inhibitory activity against human thrombin

## CC1CNc2c(cccc2S(=O)(=O)N[C@@H](CCCNC(=N)N)C(=O)N2CC[C@@H](C)C[C@@H]2C(=O)O)C1 (stereo partly specified) [ARGATROBAN]
  pIC50: 6.48
